Among the data in PubChem BioAssay AID1529 (NMMLSC, 2009) are binding response (% of control) values, retold here.

Sequences of proteins named here, by UniProt entry; tags and fusion partners are left off.
UniProt Q99759, whole entry: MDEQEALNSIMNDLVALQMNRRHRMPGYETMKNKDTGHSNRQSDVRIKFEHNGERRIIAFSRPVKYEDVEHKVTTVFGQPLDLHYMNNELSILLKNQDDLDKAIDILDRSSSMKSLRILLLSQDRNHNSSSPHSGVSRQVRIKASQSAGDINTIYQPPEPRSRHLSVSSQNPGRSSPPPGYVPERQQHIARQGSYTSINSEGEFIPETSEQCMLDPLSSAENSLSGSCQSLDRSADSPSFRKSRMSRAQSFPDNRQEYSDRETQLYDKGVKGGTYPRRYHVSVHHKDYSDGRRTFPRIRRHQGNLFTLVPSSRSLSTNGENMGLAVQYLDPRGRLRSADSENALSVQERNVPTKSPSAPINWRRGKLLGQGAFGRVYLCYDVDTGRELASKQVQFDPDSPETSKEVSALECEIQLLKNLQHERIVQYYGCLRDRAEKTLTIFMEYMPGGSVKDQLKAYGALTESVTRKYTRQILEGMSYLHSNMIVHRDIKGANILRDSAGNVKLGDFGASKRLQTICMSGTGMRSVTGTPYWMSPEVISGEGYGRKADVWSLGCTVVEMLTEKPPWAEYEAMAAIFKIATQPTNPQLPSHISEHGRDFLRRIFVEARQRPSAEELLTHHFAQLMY

Only a part is listed here, and it is no random draw. Activity calls are given as the source filed them.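 How the source made its calls: active means binding response more than 3 SD above or below the average of its plate-row segment, actives on both sides; inconclusive means wells at one plate position flagged as instrument error; inactive means the rest.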

The target in the assay is Mitogen-activated protein kinase kinase kinase 3 (Homo sapiens) (UniProt Q99759). The assay can be described thus: modulators of MEKK3-MEK5 PB1 binding, primary screen, biochemical, wildtype MEKK3, multiplex bead flow cytometry, Alexa488-MEK5 (AID 1529).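 Further: Alexa488 bead fluorescence after subtracting the streptavidin-only scavenger bead signal.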 The conditions noted are these: bead-based flow cytometry, Alexa488-MEK5 binding to MEKK3; at 10 µM; actives lie on both sides; 0 = blocked by unlabeled MEK5, 100 = vehicle. Background: In flow cytometry, cells or beads pass a laser one at a time.
For the molecule `O=[N+]([O-])c1cc([N+](=O)[O-])c(Nc2ccccn2)c([N+](=O)[O-])c1`, the binding response (% of control) was inactive: 101%.
